For one data set, the system named is A549 cells. Put plainly: Apoptosis in A549 cells (DAPI staining, PARP cleavage). Particulars: A549, 48 h; tested form: diammonium salt (as drawn, CO2NH4). How it is done:
FIG. 5 is a series of images illustrating BH3-M6 induces apoptosis in a caspase-dependent manner. (A) BH3-M6 releases cytochrome c from mitochondria. Mitochondria from A549 cells were incubated at 37° C. with 0, 50 μM BH3-M6 or TPC for 60 min. Cytochrome c release was determined as described in Methods. B-D A549 cells were treated with the indicated BH3-M6 concentrations for up to 72 h and then processed for various assays as described in EXPERIMENTAL PROCEDURES. (B) BH3-M6 induces apoptosis after 48 h of exposure to BH3-M6, as shown by phase images of cells (left panel) or DAPI nuclear staining (right panel). The arrows point towards cells in the process of rounding. The images from phase and DAPI are from different experiments. […] (D) BH3-M6 decreases the viability of A549 cells in a dose-dependent manner as measured by MTT assay after 72 h treatment. […] Caspase-3/-7 activity was determined as described in EXPERIMENTAL PROCEDURES. […] Middle panel, PARP cleavage was measured by Western blotting. Lower panel, extent of apoptosis was measured by TUNEL assay.
Release of cytochrome c from isolated mitochondria was measured as described by Takahashi et al. (Takahashi, Y., Karbowski, M., Yamaguchi, H., Kazi, A., Wu, J., Sebti, S. M., Youle, R. J., and Wang, H. G. (2005) Mol Cell Biol 25, 9369-9382) Cell-free caspase-3/-7 activity and the extent of PARP cleavage was determined as described previously. […]

Data set [1] can be described thus: Tumor accumulation in A549 xenograft nude mice. Particulars: IP, 30 mg/kg, in DMSO, tested form: diammonium salt (as drawn, CO2NH4). The procedure: FIG. 10 is an image depicting tumor accumulation of the BH3M6 compound at 30 mg/kg from free drug delivered i.p., or micelle formulation delivered i.v. or oral gavage.
An A549 lung cancer xenograft model was used for the plasma and tumor accumulation studies. A549 lung cancer xenografts were grown in nude mice by implanting approximately 10 million cells into the right flank of each mouse, and allowed 3 weeks for the tumors to establish log growth and reach about 300-400 mm^3. The formulation from Example 2 was dissolved in 150 mM NaCl for both intravenous (IV) administration and oral administration. The free drug was dissolved in DMSO for intraperitoneal (IP) administration. Time points for sample collection were 5 minutes, 1 hour and 6 hours post administration. Naive, tumor-bearing mice were used as controls for blank plasma and tumor tissue. Blood was collected by heart puncture, where approximately 500 μL was added to a 1.5 mL collection tube containing EDTA as anticoagulant. Plasma was isolated from blood by centrifugation at 2000 RPM for 5 minutes. The BH3-M6 compound was extracted from plasma by adding 50 μL of each plasma sample to 150 μL ice cold methanol. Samples were vortexed for 10 minutes, centrifuged at 13,000 RPM for 10 minutes, and the methanol supernatant was collected for HPLC analysis to determine plasma pharmacokinetics of the BH3-M6 compound. […]

Structures are written as SMILES.

With `CC(C)Cc1cc(-c2ccc(-c3ccc(CCC(=O)O)cc3CC(C)C)cc2Cc2ccccc2)ccc1OCC(=O)O`, in the data set on A549 cells, the “apoptosis as measured by DAPI staining” value is listed as “induced apoptosis” and the “appearance of an 85 kDa PARP fragment” value was “concentration-dependent manner”. In data set [1], the AUC worked out at 11.5 µg·h/g and the TMax was 6 h.

The values above are taken from patent US20130295185A1, “COMPOUNDS AND METHODS FOR INDUCING APOPTOSIS IN CANCER CELLS USING A BH3 ALPHA-HELICAL MIMETIC” (H. Lee Moffitt Cancer Center and Research Institute, Inc., priority 2011, published 2013).
